According to patent US20190060284A1, “PHARMACOLOGICAL MODULATORS OF NAV1.1 VOLTAGE-GATED SODIUM CHANNELS ASSOCIATED WITH MECHANICAL PAIN” (priority 2016, published 2019):
Entries after “also recorded” stand apart in the source; their conditions may differ.

Sequences of proteins named here, by UniProt entry; tags and fusion partners are left off. A change or cut given only in a name is not applied to a line headed by its entry.
UniProt Q9NY46, whole entry S208D: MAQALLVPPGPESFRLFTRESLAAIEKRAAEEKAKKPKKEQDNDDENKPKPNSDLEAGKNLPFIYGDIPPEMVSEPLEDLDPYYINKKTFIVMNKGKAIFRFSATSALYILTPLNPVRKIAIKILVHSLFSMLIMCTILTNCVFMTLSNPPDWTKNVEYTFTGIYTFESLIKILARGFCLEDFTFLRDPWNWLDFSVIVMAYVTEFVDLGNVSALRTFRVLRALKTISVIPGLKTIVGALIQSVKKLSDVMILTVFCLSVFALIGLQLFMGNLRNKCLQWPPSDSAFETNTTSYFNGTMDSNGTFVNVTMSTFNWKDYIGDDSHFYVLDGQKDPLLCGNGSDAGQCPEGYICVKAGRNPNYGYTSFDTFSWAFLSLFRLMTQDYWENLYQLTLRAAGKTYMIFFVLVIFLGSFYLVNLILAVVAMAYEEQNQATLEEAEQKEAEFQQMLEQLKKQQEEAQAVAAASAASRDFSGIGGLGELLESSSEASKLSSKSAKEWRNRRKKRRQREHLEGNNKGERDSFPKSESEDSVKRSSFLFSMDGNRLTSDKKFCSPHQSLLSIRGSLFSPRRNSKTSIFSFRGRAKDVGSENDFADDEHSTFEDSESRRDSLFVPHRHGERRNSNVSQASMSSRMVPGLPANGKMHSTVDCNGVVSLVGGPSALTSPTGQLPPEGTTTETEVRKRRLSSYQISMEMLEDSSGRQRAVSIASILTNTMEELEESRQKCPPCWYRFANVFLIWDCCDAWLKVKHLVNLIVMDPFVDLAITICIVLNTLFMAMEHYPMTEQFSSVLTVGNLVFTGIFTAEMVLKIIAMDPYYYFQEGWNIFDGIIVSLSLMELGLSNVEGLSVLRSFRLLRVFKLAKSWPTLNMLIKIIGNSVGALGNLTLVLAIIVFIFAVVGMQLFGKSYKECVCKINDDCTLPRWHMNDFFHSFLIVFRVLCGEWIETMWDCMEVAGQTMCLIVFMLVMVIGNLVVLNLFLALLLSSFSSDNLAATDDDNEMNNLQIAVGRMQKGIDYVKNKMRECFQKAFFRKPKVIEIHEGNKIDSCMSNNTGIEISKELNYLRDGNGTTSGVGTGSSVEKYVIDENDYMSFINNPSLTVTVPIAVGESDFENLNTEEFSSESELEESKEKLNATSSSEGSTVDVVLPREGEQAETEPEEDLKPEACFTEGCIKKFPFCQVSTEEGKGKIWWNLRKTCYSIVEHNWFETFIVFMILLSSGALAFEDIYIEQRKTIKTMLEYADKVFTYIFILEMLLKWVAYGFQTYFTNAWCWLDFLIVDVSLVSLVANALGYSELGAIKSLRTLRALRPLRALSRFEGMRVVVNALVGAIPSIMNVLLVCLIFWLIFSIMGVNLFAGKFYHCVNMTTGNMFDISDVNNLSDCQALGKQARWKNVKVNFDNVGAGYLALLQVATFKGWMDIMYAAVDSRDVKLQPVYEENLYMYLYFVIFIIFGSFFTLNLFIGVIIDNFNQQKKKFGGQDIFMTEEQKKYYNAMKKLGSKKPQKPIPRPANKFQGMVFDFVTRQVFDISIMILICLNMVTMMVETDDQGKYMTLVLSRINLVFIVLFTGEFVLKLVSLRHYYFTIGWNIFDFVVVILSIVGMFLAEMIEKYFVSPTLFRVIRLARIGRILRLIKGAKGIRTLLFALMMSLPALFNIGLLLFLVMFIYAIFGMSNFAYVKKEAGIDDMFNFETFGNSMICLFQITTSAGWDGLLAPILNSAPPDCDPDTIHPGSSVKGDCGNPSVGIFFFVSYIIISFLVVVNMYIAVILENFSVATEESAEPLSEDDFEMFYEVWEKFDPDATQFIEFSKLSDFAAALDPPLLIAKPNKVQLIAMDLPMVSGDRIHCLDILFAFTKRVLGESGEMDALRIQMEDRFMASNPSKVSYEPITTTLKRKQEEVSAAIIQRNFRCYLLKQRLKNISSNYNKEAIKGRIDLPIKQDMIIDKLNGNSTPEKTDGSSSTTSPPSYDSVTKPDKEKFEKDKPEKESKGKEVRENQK
UniProt Q03719: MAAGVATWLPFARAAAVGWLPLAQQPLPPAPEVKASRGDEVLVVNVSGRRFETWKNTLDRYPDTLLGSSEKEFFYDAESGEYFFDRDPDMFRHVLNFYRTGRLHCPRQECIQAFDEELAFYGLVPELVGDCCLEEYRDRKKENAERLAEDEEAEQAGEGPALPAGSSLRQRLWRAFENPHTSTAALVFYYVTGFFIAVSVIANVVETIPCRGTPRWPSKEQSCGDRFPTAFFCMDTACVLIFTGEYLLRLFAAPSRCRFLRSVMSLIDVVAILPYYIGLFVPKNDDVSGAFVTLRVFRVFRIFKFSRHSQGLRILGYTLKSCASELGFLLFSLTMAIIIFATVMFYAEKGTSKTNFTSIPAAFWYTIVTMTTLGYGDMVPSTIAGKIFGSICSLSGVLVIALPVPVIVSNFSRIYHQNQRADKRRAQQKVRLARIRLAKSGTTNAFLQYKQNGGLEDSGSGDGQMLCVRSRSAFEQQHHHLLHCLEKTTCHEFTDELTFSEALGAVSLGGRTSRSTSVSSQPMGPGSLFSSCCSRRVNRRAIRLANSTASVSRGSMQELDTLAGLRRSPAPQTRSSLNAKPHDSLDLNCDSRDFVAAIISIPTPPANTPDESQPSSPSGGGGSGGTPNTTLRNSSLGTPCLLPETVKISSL

Tests used:
hNav1.3 = hNav1.3 (Homo sapiens, UniProt Q9NY46); assay type: cell-based; details: compared with hNav1.1; 100 nM
[1] = tested on: splanchnic colonic afferents (high-threshold mechanoreceptors); experiment: Ex vivo gut-nerve single-unit recordings; assay type: cell-based, mouse; details: Hm1a 100 nM
Protocol: In vitro single-unit extracellular recordings of action potential discharge were made from splanchnic colonic afferents. Recordings were made from healthy or CVH mice using standard protocols^61-63. Baseline mechanosensitivity was determined in response to application of a 2 g von frey hair (vfh) probe to the afferent receptive field for 3 seconds. This process was repeated 3-4 times, separated each time by 10 seconds. Mechanosensitivity was then re-tested after the application of Hm1a (100 nM) or the Nav1.1 blocker ICA-121432 (500 nM) or a combination of both ICA-121432 (500 nM) and Hm1a (100 nM). Data are presented as spikes/s and are expressed as mean±SEM.
Colitis was induced by administration of TNBS as described previously^62,63. Briefly, 13 week old anaesthetized mice were administered an intra-colonic enema of 0.1 mL TNBS (130 μg/mL in 30% EtOH) via a polyethylene catheter^62,63,66. Histological examination of mucosal architecture, cellular infiltrate, crypt abscesses, and goblet cell depletion confirmed significant TNBS-induced damage by day 3 post-treatment, which largely recovered by day 7, and fully recovered by 28 days. […] As such, they are termed ‘chronic visceral hypersensitivity’ (CVH) mice^62,63,66,68.
Ex vivo single-unit extracellular recordings of action potential discharge were made from splanchnic colonic afferents. Recordings were made from healthy or CVH mice using standard protocols (e.g. Brierley, S. M., Jones, R. C., III, Gebhart, G. F. & Blackshaw, L. A. Splanchnic and pelvic mechanosensory afferents signal different qualities of colonic stimuli in mice. Gastroenterology 127, 166-178 (2004)). Baseline mechanosensitivity was determined in response to application of a 2-g Von Frey hair probe to the afferent receptive field for 3 s. This process was repeated 3-4 times, separated each time by 10 s. Mechanosensitivity was then re-tested after the application of Hm1a (100 nM) or the Nav1.1 blocker compound B (100 μM) or a combination thereof. Instantaneous frequency is defined as the inverse of the time interval between an action potential and the previous action potential. Group data are presented as spikes per second and are expressed as mean±s.e.m.

mKv4.1 = mKv4.1 (Mus musculus, UniProt Q03719); experiment: Oocyte recording of mKv4.1 current; assay type: cell-based
[2] = tested on: paw withdrawal from noxious heat stimulus; experiment: Hargreaves' test (noxious heat); assay type: in vivo, mouse
Protocol: (§1) For behavioral experiments in FIG. 4, adult mice (6-12 weeks) were used. Male and female mice were first considered separately in hindpaw nocifensive response experiments. […] Therefore, male and female behavioral responses were pooled and subsequent experiments were performed on both male and female mice for CKO and WT littermate experiments, or only male mice for other conditions (e.g. Cap ablation). Nocifensive responses were recorded during a 20 minute observation period immediately following intraplantar injections (10 μl PBS with or without 5 μM Hm1a). Licking/biting behavior was scored as seconds of behavior with the experimenter blinded to injection condition and experimental cohort (WT, CKO or Cap Ablated mice). Hargreaves and Von Frey tests were performed 30 minutes after intraplantar injection of 500 nM Hm1a or Hm1b. I.t. cap ablation was performed as previously described^34, and i.t. cap treated mice were tested on a hot plate to ensure ablation of TRPV1+afferents. Ablation was also confirmed by histology.

[3] = tested on: rKv2.1 channels containing the S3b-S4 toxin-binding region from each of the four hNav1.9 domains; assay type: cell-based, rat/human
mouse hind paw = experiment: Hindpaw nocifensive response (licking/biting) after intraplantar injection; assay type: in vivo
Protocol: as §1

Which “effect on fast inactivation” value (hNav1.3) does the source give for CC(C)C[C@@H]1NC(=O)[C@H](Cc2ccc(O)cc2)NC(=O)[C@H](CCCNC(=N)N)NC(=O)[C@@H](NC(=O)[C@@H](N)CCC(=O)O)CSSC[C@@H]2NC(=O)[C@@H]3CSSC[C@@H](C(=O)N[C@@H](C)C(=O)N[C@@H](Cc4c[nH]c5ccccc45)C(=O)N[C@@H](CC(=O)O)C(=O)NCC(=O)N[C@H](C(=O)N[C@@H](Cc4ccccc4)C(=O)N[C@@H](CO)C(=O)O)[C@@H](C)O)NC(=O)[C@H](Cc4ccc(O)cc4)NC(=O)[C@H](CCCCN)NC(=O)[C@H](Cc4c[nH]c5ccccc45)NC(=O)[C@H](CC(=O)O)NC(=O)[C@H](CO)NC(=O)[C@H](CCCNC(=N)N)NC(=O)[C@H](CSSC[C@H](NC(=O)CNC(=O)CNC(=O)[C@H](Cc4ccccc4)NC1=O)C(=O)N[C@@H](CO)C(=O)N[C@@H](CO)C(=O)N[C@@H]([C@@H](C)O)C(=O)N[C@@H](CO)C(=O)N[C@@H](CC(=O)O)C(=O)N3)NC(=O)[C@H](CO)NC(=O)[C@H](CC(C)C)NC(=O)[C@H](Cc1c[nH]cn1)NC(=O)[C@H](CCCCN)NC2=O [Hm1a, δ-theraphotoxin-Hm1a] here?
The value was “substantially weaker effects”.

And the “Hm1a-responsive fibers (responders/fibers)” value ([1]; CVH mice)?
Its value is 4/11.

What about the “mechanically-evoked responses of Hm1a-responsive fibers” value ([1]; CVH mice) of the same molecule?
The value was “significant increase in mechanically-evoked responses”.

And the “subset of CVH fibers with enhanced mechanically-evoked spiking” value ([1]; CVH mice)?
Its value is 36%.

And the “sub-population of high-threshold colonic afferents with increased mechanically-evoked spiking” value ([1]; healthy mice)?
Its value is 40%.

And the “fibers that responded to Hm1a (responders/fibers)” value ([1]; healthy mice, responder = 15% increase over baseline)?
The value was 6/15.

What about the “block of mKv4.1” value (mKv4.1; 1 μM native Hm1a) of the same molecule?
Its value is “fails to block”.

And the “block of mKv4.1 current” value (mKv4.1; high concentrations (up to 5 μM) of synthetic Hm1a)?
Its value is less than 20%.

What about the sensitivity to heat ([2]; 500 nM in 10 μl intraplantar, 30 minutes after injection) of the same molecule?
The sensitivity to heat was “does not alter sensitivity to heat”.

And the contralateral heat sensitivity ([2]; 500 nM unilateral injection)?
The contralateral heat sensitivity was “no change in heat sensitivity”.

What about the toxin sensitivity [3] of the same molecule?
Its toxin sensitivity is “toxin insensitive”.

And the “nocifensive responses (licking or biting of injected paw)” value (mouse hind paw; Hm1a 5 μM in 10 μl intraplantar, WT mice, 20 minute observation)?
The value was “immediate and robust nocifensive responses”.

What about the “nocifensive behavior in Per-Cre x Floxed-Nav1.1 (CKO) mice” value (mouse hind paw; Hm1a 5 μM in 10 μl, CKO versus WT) of the same molecule?
Its value is “significantly greater responses to toxin in WT littermate; also recorded: significantly attenuates; also recorded: significantly reduced”.

And the “nocifensive behavior after ablation of TRPV1 fibers” value (mouse hind paw; Hm1a 5 μM in 10 μl, intrathecal capsaicin ablated mice)?
The value was “persisted; also recorded: unaffected”.
